The values below come from US20100143381A1, “LYSOPHOSPHATIDIC ACID RECEPTOR TARGETING FOR LUNG DISEASE” (priority 2007, published 2010).

The experiment concerns primary lung fibroblasts. Nature of the experiment: Fibroblast chemotaxis induced by albumin alone. In kind it is cell-based, mouse. As to conditions: FIG. 9a. On the procedure:
After being serum-starved in DMEM without FBS overnight, subconfluent primary lung fibroblasts were harvested with non-enzymatic Cell Dissociation Solution (Sigma) to avoid possible proteolysis of surface chemoattractant receptors by trypsin. Harvested cells, at 5.0×10^5 cells/ml in 50 μl of DMEM, were placed in the top of a 48-well modified Boyden microchemotaxis chamber (NeuroProbe). Duplicate 30 μl aliquots of either: i) 18:1 LPA (Avanti Polar Lipids) or PDGF-BB (R&D Systems) in DMEM with 0.1% fatty acid-free bovine serum albumin (Sigma); or ii) BAL, or BAL fractions, diluted 1:4 in DMEM, were placed in the bottom wells of the chamber and separated from the cells by a 8-μm-pore, polyvinylpyrrolidone-free polycarbonate filter (Osmonics) that had been coated with fibronectin (Sigma). The apparatus was incubated at 37° C. and 5% CO2 for 3 hours, and cells migrating across the filter and adhering to the bottom side of the filter were stained with a commercially modified Wright's stain (Hema 3 stain set, Fisher Diagnostics) and counted, after cells remaining on the top side of the filter had been scraped off. Data from these experiments is presented as chemotactic indices, i.e. the number of cells migrating in response to BAL divided by the number of cells migrating to media controls.

Take “methanol-extracted fatty acid-free mouse serum albumin: methanol-extracted fatty acid-free mouse serum albumin (MSA)”: the “induction of fibroblast chemotaxis by albumin alone” value (“induction of fibroblast chemotaxis” below) is reported as “did not induce chemotaxis”. Also, where the note is “listed as methanol-extracted fatty acid-free albumin”, the “induction of fibroblast chemotaxis” value was “did not induce fibroblast chemotaxis”.
Take “nonextracted MSA: mouse serum albumin that has not had bound lipids extracted”: the “induction of fibroblast chemotaxis” value is reported as “did”.
